From PubChem
Compounds with a hit are over-represented: about 13% of the library has one in this group of screens.
Sfp inh – inhibitors of Bacillus subtilis Sfp phosphopantetheinyl transferase. Q9F4F7. Biochemical Sfp PPTase activity, qHTS. Potency, µM, inactives show max response, negative = inhibition, most hits filed as inhibitors. 3.5% of 310,000 active. AID 1490; active = well fitted inhibition curve with a large enough effect; inconclusive = small, poorly fitted or top-dose-only effect, or another doubt; inactive = no such curve, though single readings can be large or run the other way;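 also: the enzyme is Sfp with the accession as filed and its product quenches rhodamine fluorescence; potency is read from the fitted curve at half-maximal effect; 0% = enzyme reaction without inhibitor and -100% = no enzyme wells; top concentration of the series not given in the record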
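With Hepes-Na pH 7.6 buffer containing 10 mM MgCl2, Sfp (15 nM) modified BHQ-2-YbbR (12.5 uM) using rhodamine-CoA (5 uM). Two reads 30 minutes apart at 525/598 nm yielded each well's rate.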
G9a inh – inhibitors of human histone lysine methyltransferase G9a. Q96KQ7. G9a H3K9 monomethylation, AlphaScreen, 2 h. Potency, µM (doses to about 102 µM), inactives show at the top dose activity, negative = inhibition, most hits filed as inhibitors. 8.8% of 350,000 active. AID 504332; note: potency is the fitted concentration of half-maximal effect; % is set by controls: 0 for no effect and ±100 for the full control effect; nearly all actives have a fitted effect of over 75% in size
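Step 1: enzyme (final 20 nM) with compound, 15 min RT. Step 2: substrate peptide 500 nM and SAM 20 uM, 2 h RT. Step 3: anti-H3K9me1 antibody and AlphaScreen beads, 10 min, then plate read.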
miR-21 reporter – raises the signal of a miR-21 reporter | HeLa miR-21 FLuc reporter, luciferase, 48 h | Potency, µM (doses to about 38.3 µM), for the others: at the highest dose reporter change, positive = more light | 340,000 tested, under 10 active | AID 2288; active = well fitted rising curve with a large enough effect; inconclusive = small, poorly fitted or top-dose-only effect; inactive = no such curve, though single readings can be large or run the other way;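 also: % of control where 0% means no effect; miR-21 action dims this reporter so a rising signal means less miR-21 action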
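Compounds were titrated across several concentrations (up to approximately 40 uM) and incubated 48 hours with HeLa miR-21-FLuc reporter cells (miR-21 target sequence downstream of FLuc, endogenous miR-21). Readout was firefly luciferase luminescence after lytic detection reagent.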
JMJD2E inh – JMJD2E (human) inhibition; B2RXH2; JMJD2E catalytic domain, FDH-coupled NADH fluorescence (FDH is formaldehyde dehydrogenase); Potency, µM (top dose mostly 57.1 µM), without a hit: top-dose activity change, negative = inhibition, most hits filed as inhibitors; 1.6% of 230,000 active; active = well fitted inhibition curve with a large enough effect, not every such curve was filed as active; inconclusive = small, poorly fitted or top-dose-only effect, or another doubt; inactive = no such curve, though single readings can be large or run the other way;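 note: potency is the fitted concentration of half-maximal effect; 0% = wells with enzyme and -100% = buffer wells without enzyme; nearly all actives have a fitted effect of over 50% in size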
ALDH1A1 inh – inhibitors of human aldehyde dehydrogenase 1A1 | 7.3% of 220,000 active | Potency, µM (doses to about 75.3 µM), inactives show at the top dose activity, negative = inhibition, actives largely listed as inhibitors | Purified ALDH1A1, NADH fluorescence, propionaldehyde substrate; active = well fitted inhibition curve with a large enough effect, not every such curve was filed as active; inconclusive = small, poorly fitted or top-dose-only effect, or another doubt; inactive = no such curve, though single readings can be large or run the other way;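 note: potency is the fitted concentration of half-maximal effect; plate controls were no enzyme wells and a reference inhibitor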
Lamin A splicing – changes lamin A minigene splicing in HeLa cells; Potency, µM (doses to about 46.1 µM), without a hit: at the top dose ratio change, negative = inhibition, usual class: inhibitors; AID 1487; HeLa LMNA splicing GFP/RFP minigene ratio, 48 h; 0.01% of 200,000 active; active = well fitted inhibition curve with a large enough effect in the signal ratio, with a control signal flat, not every such curve was filed as active; inconclusive = small, poorly fitted or top-dose-only effect, or effect the other way, or a change in a side signal; the % refers to the signal ratio; note: potency is the fitted concentration of half-maximal effect; % is set by controls: 0 for no effect and ±100 for the full control effect
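S3 HeLa stable clones carrying a lamin A-EGFP splicing minigene plus DsRed2 were seeded at 600 cells/well in Opti-MEM with 2% FBS, pin-dosed and incubated 48 h at 37°C. Acumen cytometry (488 nm) gave the GFP/RFP total-intensity ratio.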
Numbers without * were called inactive; ? = inconclusive; · = no result; ! = repeats disagree; [ ] = remark or other dose. Unless noted, calls come from the whole dose curve; as a rule, active = well fitted curve in the direction sought with a large enough effect; inconclusive = small, poorly fitted or top-dose-only effect, or another doubt; inactive = no such curve, though single readings can be large; an effect the other way counts as inactive or inconclusive.

No.	structure	ALDH1A1 inh	miR-21 reporter	Lamin A splicing
1	CCOc1[nH]n(-c2ccccc2)c(=O)c1C=Nc1ccccc1	-10%	21%	9%[9.22 µM]
2	Cc1ccccc1NC(=O)c1ccc(NS(=O)(=O)c2cc(C(C)(C)C)cc(C)c2C)cc1	2.8µM*	26%	-29%
3	Cc1cc(C(C)(C)C)cc(S(=O)(=O)Nc2cccc(C(=O)O)c2)c1C	?	-9%	10%
4	O=[N+]([O-])c1cc(Cl)c(Cl)c(Cl)c1Cl	4%	·	·
5	CCOC(=O)C1(Cc2cccc(Cl)c2)CCCN(C(=O)c2cnn(CC)c2)C1 (stereo not drawn)	·	-18%	·
6	CCOC(=O)C1(Cc2cccc(Cl)c2)CCCN(C(=O)c2cn[nH]c2)C1 (stereo not drawn)	·	-6%	·
7	COC(=O)c1cc2sccc2n1CC(=O)Nc1ccc(C)cc1C	·	0%	·
8	CS(=O)(=O)Nc1ccc(C2=NN(C(=O)c3ccco3)C(c3ccccc3F)C2)cc1 (stereo not drawn)	?	20%	5%[9.22 µM]

No.	JMJD2E inh	Sfp inh	G9a inh
1	0%	15%	20µM*
2	-6%	20%	-7%[59 µM]
3	8%	11%	24%[59 µM]
4	·	·	8%[0.501 µM]
5	·	3%	25µM*
6	·	4%	·
7	·	·	-7%[59 µM]
8	?	-13%	50µM*

Entries listed so far printed as active in G9a inh:
item	SMILES	ALDH1A1 inh	miR-21 reporter	JMJD2E inh	Sfp inh	G9a inh
1	CCOc1[nH]n(-c2ccccc2)c(=O)c1C=Nc1ccccc1	-10%	21%	0%	15%	20µM*
5	CCOC(=O)C1(Cc2cccc(Cl)c2)CCCN(C(=O)c2cnn(CC)c2)C1 (stereo not drawn)	·	-18%	·	3%	25µM*
8	CS(=O)(=O)Nc1ccc(C2=NN(C(=O)c3ccco3)C(c3ccccc3F)C2)cc1 (stereo not drawn)	?	20%	?	-13%	50µM*

Carrying on.
No.	structure	ALDH1A1 inh	miR-21 reporter	Lamin A splicing
9	CS(=O)(=O)Nc1ccc(C2=NN(S(=O)(=O)c3ccc(F)cc3)C(c3ccco3)C2)cc1 (stereo not drawn)	?	8%	1%[46 µM]
10	CS(=O)(=O)Nc1cccc(C2=NN(C(=O)c3ccco3)C(c3ccco3)C2)c1 (stereo not drawn)	·	8%	·
11	Fc1c(F)c(F)c(N=Cc2ccc3ncccc3c2)c(F)c1F	8.9µM*	1%	-4%
12	O=[N+]([O-])c1ccc(/C=N/Nc2nc(N3CCCCCC3)nc(N3CCCCCC3)n2)o1	3%	-4%	7%
13	O=C(CN1CCCCCCC1)N/N=C/c1ccc([N+](=O)[O-])o1	·	?	·
14	O=[N+]([O-])c1ccc(/C=N/Nc2nc(N3CCCCC3)nc(N3CCCCC3)n2)cc1	?	-1%	-22%[46 µM]
15	COC(CNC(=O)C1CCN(S(=O)(=O)c2cccc3nsnc23)CC1)OC	·	1%	·
16	Cc1ccccc1CN1C(=O)c2ccccc2Sc2ccc(C(=O)NC3CCCCC3)cc21	·	-2%	-19%[46 µM]

No.	JMJD2E inh	Sfp inh	G9a inh
9	3%	50µM*	50µM*
10	·	-13%	·
11	3%	-4%	-40%[59 µM]
12	5%	-12%	10µM*
13	·	?	32µM*
14	1%	-20%	·
15	·	8%	8%
16	·	·	-3%[59 µM]

Going on with the list.
No.	structure	ALDH1A1 inh	miR-21 reporter	Lamin A splicing
17	O=C(N=C1SC2CS(=O)(=O)CC2N1c1ccc(Cl)cc1Cl)C1CC1 (stereo not drawn)	·	-5%	·
18	CO[C@H]1C[C@@H]2CC[C@@H](C)[C@@](O)(O2)C(=O)C(=O)N2CCCC[C@H]2C(=O)OC([C@H](C)C[C@@H]2CC[C@@H](O)[C@H](OC)C2)CC(=O)[C@H](C)/C=C(\C)[C@@H](O)[C@@H](OC)C(=O)[C@H](C)C[C@H](C)/C=C/C=C/C=C/1C (stereo partly drawn)	18µM*!	·	·
19	CO[C@H]1C[C@@H]2CC[C@@H](C)[C@@](O)(O2)C(=O)C(=O)N2CCCC[C@H]2C(=O)O[C@H]([C@H](C)C[C@@H]2CC[C@@H](O)[C@H](OC)C2)CC(=O)[C@H](C)C=C(C)[C@@H](O)[C@@H](OC)C(=O)[C@H](C)C[C@H](C)C=CC=CC=C1C	·	9%	·
20	CC[C@@H]1C=C(C)C[C@H](C)C[C@H](OC)[C@H]2O[C@@](O)(C(=O)C(=O)N3CCCC[C@H]3C(=O)O[C@H](/C(C)=C/[C@@H]3CC[C@@H](O)[C@H](OC)C3)[C@H](C)[C@@H](O)CC1=O)[C@H](C)C[C@@H]2OC	-6%	4%	?
21	COc1ccc(-c2cc(C(F)(F)F)c(C#N)c(SCC(=O)O)n2)cc1OC	·	1%	·
22	CCc1nn(C(CC)C(=O)NCc2ccc(F)cc2)c(=O)c2cc3occc3n12 (stereo not drawn)	·	-8%	·
23	Cc1ccc(-n2c3c(c(=O)[nH]c2=O)C(NS(=O)(=O)c2ccc(Cl)cc2)(C(F)(F)F)C(=O)N3)cc1 (stereo not drawn)	6%	1%	-11%
24	O=C1Nc2c(c(=O)[nH]c(=O)n2Cc2ccccc2)C1(NS(=O)(=O)c1ccccc1)C(F)(F)F (stereo not drawn)	?	-5%	·

No.	JMJD2E inh	Sfp inh	G9a inh
17	·	23%	79µM*
18	·	-7%	25µM*!
19	-5%	79µM*	?
20	-23%	-4%	?
21	7%	?	5%
22	·	·	-5%[59 µM]
23	?	12%	50µM*!
24	-8%	14%	45µM*

Further entries
No.	structure	ALDH1A1 inh	miR-21 reporter	Lamin A splicing
25	CC(C)CC(=O)NC1(C(F)(F)F)C(=O)Nc2c1c(=O)[nH]c(=O)n2Cc1ccco1 (stereo not drawn)	10%	-4%	4%
26	O=C(NC1(C(F)(F)F)C(=O)Nc2c1c(=O)[nH]c(=O)n2Cc1ccco1)C1CCCCC1 (stereo not drawn)	4%	-1%	1%
27	CC(=O)NCc1cc(Cl)c2cccnc2c1O	·	·	·
28	COc1ccc(C(=O)Nc2ccccc2N2CCOCC2)cc1[N+](=O)[O-]	?	0%	4%
29	COc1ccc(C(=O)NC(=S)Nc2ccccc2N2CCOCC2)cc1[N+](=O)[O-]	7.1µM*	-1%	?
30	Cc1cc(C(=O)NC(=S)Nc2ccccc2N2CCCC2)ccc1[N+](=O)[O-]	?	-5%	-8%
31	Cc1cc(C(=O)NC(=S)Nc2ccccc2N2CCOCC2)ccc1[N+](=O)[O-]	10µM*	-1%	?
32	CSc1cccc(NC(=S)Nc2cc(C)ccc2C)c1	5%	-12%	·

No.	JMJD2E inh	Sfp inh	G9a inh
25	-6%	11%	?
26	-5%	2%	79µM*
27	·	·	12%[12.7 µM]
28	1%	-10%	1%[59 µM]
29	-9%	-7%	?
30	-6%	0%	?
31	-1%	7%	35µM*
32	5%	0%	-26%

Carrying on.
No.	structure	ALDH1A1 inh	miR-21 reporter	Lamin A splicing
33	CCc1ccc2nc3c(c(C(=O)O)c2c1)CCC3	?	-18%	8%
34	CCCNC(=O)COC(=O)c1c2c(nc3ccccc13)CCC2	·	2%	·
35	CC1Cc2ccccc2N1C(=O)COC(=O)c1c2c(nc3ccccc13)CCCCC2 (stereo not drawn)	-18%	18%	-15%
36	CC1Cc2ccccc2N1C(=O)COC(=O)Cc1ccc(F)cc1 (stereo not drawn)	·	·	·
37	O=C(OCC(=O)N1CCc2ccccc21)c1c2c(nc3ccccc13)CCCC2	3%	21%	?
38	CC1Cc2ccccc2N1C(=O)COC(=O)Cn1nnc(-c2ccccc2)n1 (stereo not drawn)	0.71µM*	-7%	4%

No.	JMJD2E inh	Sfp inh	G9a inh
33	0%	-2%	50µM*
34	·	8%	40µM*
35	-11%	3%	2µM*
36	·	·	11%
37	-1%	11%	?
38	-4%	18%	-21%[12.7 µM]
